{"source": "patent US20150247179A1", "about": "(Les Laboratoires Servier, priority 2013, published 2015)", "system": "CYP1A2", "method": "Each active ingredient was incubated at 0.1 μM at 37° C. […] The reaction is initiated by addition of NADPH 1 mM. The incubation is monitored in kinetic form. At the incubation timepoints of 7 min, 17 min, 30 min and then 60 min, an incubation aliquot (100 μL) is sampled and the enzymatic reaction is stopped by adding to that aliquot a to volume of solvent (100 μL of methanol) which is placed in ice for 10 minutes.\nAt each incubation timepoint, the active ingredient is quantified by high-performance liquid chromatography (HPLC) coupled with mass spectrometry (MS).", "data": [{"molecule": "CN[C@H]1CC[C@@H](c2ccc(Cl)c(Cl)c2)c2ccccc21", "note": "[sertraline]", "values": [{"measurement": "inhibition of intrinsic clearance = % involvement of CYP1A2 in the oxidative metabolism (kit of isolated microsomes)", "result": "No significant inhibition"}]}]}
